Measured values as given in patent US10487068B2, “Pyridazine derivatives as RORc modulators” (Genentech, Inc., priority 2015, dated 2019).

Chains of the proteins cited; added tags and fusions are not shown. Residues count along the entry.
UniProt P51449, 269-508 limits assumed: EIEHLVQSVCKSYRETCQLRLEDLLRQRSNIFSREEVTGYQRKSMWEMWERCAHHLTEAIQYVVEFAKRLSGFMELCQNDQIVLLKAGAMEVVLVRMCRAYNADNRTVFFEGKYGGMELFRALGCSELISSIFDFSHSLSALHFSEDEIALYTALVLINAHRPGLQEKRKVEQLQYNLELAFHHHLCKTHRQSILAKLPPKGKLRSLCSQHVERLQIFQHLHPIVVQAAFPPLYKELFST

Each compound was assayed against RORc ligand binding domain (Homo sapiens, UniProt P51449) (assay: In Vitro RORc Ligand Binding Assay). Conditions: RORc IC50, radioligand 25-[3H]hydroxycholesterol 6 nM; 0.6 ug/mL RORc receptor; 3 h at 25° C.

IC50 [nM] | SMILES
2.9 | CC1(C)[C@H]2CC[C@]1(c1ccnc(N3CCC[C@H]3CO)n1)c1nnc(-c3c(F)cccc3F)cc12 [Example 331]
2.9 | CCc1ncn(-c2nccc([C@@]34CC[C@@H](c5cc(-c6c(F)cccc6F)nnc53)C4(C)C)n2)n1 [Example 272]
2.9 | CC1(C)[C@H]2CC[C@]1(c1ccnc(N3CCC(O)CC3)n1)c1nnc(-c3c(F)cccc3F)cc12 [Example 332]
2.9 | Cc1ccc(C#N)nc1[C@@]12CC[C@@H](c3cc(-c4c(F)cccc4F)nnc31)C2(C)C [Example 186, 6-((5R,8S)-3-(2,6-difluorophenyl)-9,9-dimethyl-5,6,7,8-tetrahydro-5,8-methanocinnolin-8-yl)-5-methylpicolinonitrile]
